Values after ≈ are worked out from the molar mass of the structure shown.

The first assay deals with S. salivarius DPC6487.
Experiment: not given
The conditions noted are these: VetMIC Lact-1/Lact-2, anaerobic, 37° C., 48 h.
With Gentamycin, the “MIC for S. salivarius DPC6487” value amounted to 8 µg/mL.
In the case of Neomycin, the “MIC for S. salivarius DPC6487” value was determined as 16 µg/mL.
With Penicillin, the “MIC for S. salivarius DPC6487” value worked out at 0.12 µg/mL.
Same read-out and setting: to Quinupristin-dalfopristin belongs 1 µg/mL.

The test system of the next assay is S. salivarius DPC6487. Put plainly: microbe, parasite or virus in culture. The note with it: Streptococcus salivarius, DPC6487, 48 h, read-out: MIC for S. salivarius DPC6487.
In the case of `CC1(C)S[C@@H]2[C@H](NC(=O)[C@H](N)c3ccccc3)C(=O)N2[C@H]1C(=O)O` [Ampicillin], the MIC worked out at 0.5 µg/mL (≈ 1.43 µM).
Still for that read-out and setting: under `O=C(N[C@H](CO)[C@H](O)c1ccc([N+](=O)[O-])cc1)C(Cl)Cl` [Chloramphenicol] stands 2 µg/mL (≈ 6.19 µM); under `CC[C@H]1OC(=O)[C@H](C)[C@@H](O[C@H]2C[C@@](C)(OC)[C@@H](O)[C@H](C)O2)[C@H](C)[C@@H](O[C@@H]2O[C@H](C)C[C@H](N(C)C)[C@H]2O)[C@](C)(O)C[C@@H](C)C(=O)[C@H](C)[C@@H](O)[C@]1(C)O` [Erythromycin], 1 µg/mL (≈ 1.36 µM).
Still for that read-out and setting: to `CC(=O)NC[C@H]1CN(c2ccc(N3CCOCC3)c(F)c2)C(=O)O1` [Linezolid] belongs 1 µg/mL (≈ 2.96 µM).
Still for that read-out and setting: under `CN(C)[C@@H]1C(O)=C(C(N)=O)C(=O)[C@@]2(O)C(O)=C3C(=O)c4c(O)cccc4[C@@](C)(O)[C@H]3C[C@@H]12` [Tetracycline] stands 1 µg/mL (≈ 2.25 µM); under `COc1cc(Cc2cnc(N)nc2N)cc(OC)c1OC` [Trimethoprim], 8 µg/mL (≈ 27.6 µM).
Consider `CN[C@H](CC(C)C)C(=O)N[C@H]1C(=O)N[C@@H](CC(N)=O)C(=O)N[C@H]2C(=O)N[C@H]3C(=O)N[C@H](C(=O)N[C@H](C(=O)O)c4cc(O)cc(O)c4-c4cc3ccc4O)[C@H](O)c3ccc(c(Cl)c3)Oc3cc2cc(c3O[C@@H]2O[C@H](CO)[C@@H](O)[C@H](O)[C@H]2O[C@H]2C[C@](C)(N)[C@H](O)[C@H](C)O2)Oc2ccc(cc2Cl)[C@H]1O` [Vancomycin], for which the MIC was 0.5 µg/mL (≈ 0.345 µM).

These data come from patent US20250129328A1, “AN ISOLATED S. SALIVARIUS STRAIN AND ITS USE AS AN ANTIMICROBIAL PRODUCING PROBIOTIC” (priority 2021, published 2025).
